System: NCM460
Experiment: Cytotoxicity against human NCM460 cells at 100 uM by CCK8 method
Format: toxicity, cell-based
Settings: ncm460, 100 µM

**Q.** With `Cc1cc(C)c(S(=O)(=O)N(CC(=O)O)c2ccc(N[C@@H](C)CC(=O)O)c3ccccc23)c(C)c1` as the compound, how does the Activity read?
**A.** The Activity was “Non-toxic”.

Reference: ChEMBL document CHEMBL6109073, “Discovery of β-amino acid substituted naphthalene sulfonamide derivatives as potent Kelch-like ECH-associated protein 1-nuclear factor erythroid 2-related factor 2 (Keap1-Nrf2) protein-protein interaction inhibitors for ulcerative colitis management” (Eur J Med Chem, 2025)
